The values below are quoted from earlier work in US4520134A, “N-alkyl-4'-hydroxyacetanilides, pharmaceutical compositions comprising them and their use” (priority 1984, dated 1985).

For the data set the following is noted: some sensitive strains of mice, e.g. outbred Swiss; cited from earlier work.

Regarding `CC(=O)Nc1ccc(O)cc1` [acetaminophen], the LD100 is 400 mg/kg.
